# Source: patent US7192728B2, “Screening assays for agents that alter inhibitor of apoptosis (IAP) protein regulation of caspase activity” (The Burnham Institute, priority 1997, dated 2007)
# Assays:
# [1] = system: DEVD-pNA hydrolysis activity in 293 cell cytosolic extracts; assay: Cytochrome c/dATP-induced caspase activation (DEVD hydrolysis) in 293 cell cytosolic extracts; format: biochemical, human; conditions: 3 μM; extracts activated 30 min with cytochrome c and dATP
# Description: The cytosol fraction of cell extracts was prepared from 293 embryonic kidney cells or Jurkat T cells, essentially as described (Liu et al., supra, 1996), but with modifications as indicated below. Cells were washed with ice cold buffer A (20 mM Hepes (pH 7.5), 10 mM KCl, 1.5 mM MgCl2, 1 mM EDTA, 1 mM DTT and 0.1 mM PMSF) and suspended in 1 vol buffer A, then incubated on ice for 20 min. 293 cells were disrupted by passage 15× through a 26 gauge needle and Jurkat T cells were disrupted by dounce homogenization in 2 ml using 15 strokes with a pestle B. Cell extracts (10–15 mg total protein/ml) were clarified by centrifugation at 16,000×g for 30 min, then the NaCl concentration was increased by 50 mM. Cytosolic fractions were used immediately or stored frozen at −80° C.
# Caspase activity was assayed by release of either 7-amino-4-trifluoromethyl-coumarin (AFC) or p-nitroanilide (pNA) from benzylyoxycarbonyl-DEVD (SEQ ID NO: 2) or benzylyoxycarbonyl-YVAD (SEQ ID NO: 3) synthetic peptides using a Molecular Devices Spectromax 340 for AFC labeled peptides or Perkin/Elmer LS50B for pNA labeled peptides (see Example II; see, also, Zhou et al., supra, 1997). […] DEVD-pNA hydrolysis was measured at various times and multiple experiments were performed using several different GST-XIAP preparations.
# pro-caspase-9 [2] = assay: Cytochrome c-induced processing of pro-caspase-9 in 293 cytosolic extracts; format: biochemical, human; conditions: 0.2 μM GST-IAP; 30 min at 30° C.
# Description: For the results shown in FIG. 4, in vitro translated ^35S-labeled pro-caspase-9 was added to cytosolic extracts from 293 cells, and subsequently incubated for 30 min at 30° C. with (lanes 2–6) or without (lane 1) 10 μM cytochrome c and 1 mM dATP in the presence or absence of 0.2 μM GST-IAP proteins or a GST control protein. Cytochrome c induced processing of pro-caspase-9 was subsequently monitored by SDS-PAGE and autoradiography.
# Pro-caspase-9 inhibition by Ac-DEVD-fmk, zVAD-fmk and XIAP was compared as follows. In vitro translated ^35S-labeled pro-caspase-9 was added to cytosolic extracts from 293 cells containing 10 μM cytochrome c and 1 mM dATP. Samples were incubated at 30° C. for 30 minutes in the presence of the indicated concentrations of inhibitors. Proteins were separated on SDS-PAGE gels, dried directly, and exposed to film.
# 293T cells = assay: Caspase-9-induced pro-caspase-3 processing and apoptosis in transfected 293T cells; format: cell-based, human; conditions: co-transfection with FLAG-caspase-9
# Description: (§1) Co-immunoprecipitations and immunoblot assays were performed as follows. Human embryonic kidney 293T cells were maintained in DMEM supplemented with 10% fetal bovine serum, 1 mM L-glutamine and antibiotics. 2×10^6 cells were plated in 10 mm dishes and 24 hr later transiently co-transfected with 2 μg of either pFLAG-CMV2-caspase-9 or pCMV-Fas and 6–8 μg of either pcDNA3myc-XIAP, pcDNA3myc-c-IAP-1, pcDNA3myc-c-IAP-2, or pcDNA3myc-control plasmid DNA by a calcium phosphate precipitation method (Roy et al., supra, 1997). […] Immunoprecipitates were washed 3 times with lysis buffer, and bound proteins separated by SDS-PAGE and analyzed by immunoblotting using antibodies specific for the FLAG epitope (Kodak, Inc.), myc-epitope, or caspase-3.
# (§2) Cell lysates were prepared 16 hr later for either (A) immunoblot analysis of caspase-3, or (B) DEVD-AFC. […] Relative apoptosis was scored at 1.5–2 days after transfection by DAPI staining (mean±SE; n=3) for 293 T cells co-transfected with pGFP and FLAG-control or FLAG-pro-caspase-9, and either pcDNA3-myc-tag control plasmid, pcDNA3-myc-XIAP, pcDNA3-myc-IAP-1 or pcDNA3-myc-c-IAP-2. […] Lysates from the same cell (50 μg per lane) were also analyzed by immunoblotting using anti-FLAG and anti-myc antibodies to verify expression of […].
# pro-caspase-9 [3] = assay: Co-immunoprecipitation of pro-caspase-9 with myc-tagged IAPs in 293T cells; format: binding, human; conditions: anti-myc immunoprecipitation, anti-FLAG blot
# Description: as §1, §2
substance,measurement,setting,value
"c-IAP-1: cellular IAP protein c-IAP-1/HIAP-2/hMIHB, recombinant GST fusion or myc-tagged",DEVD hydrolysis in activated 293 cell cytosolic extracts (in words),[1],inhibited DEVD hydrolysis
same,cytochrome c-induced pro-caspase-9 processing (in words),pro-caspase-9 [2],"inhibited pro-caspase-9 processing, albeit to a lesser extent"
same,caspase-9-induced cleavage of pro-caspase-3 and Ac-DEVD-AFC cleavage activity (in words),293T cells,markedly reduced
same,number of apoptotic 293T cells (in words),293T cells; DAPI staining,a reduction in the number of apoptotic 293T cells
same,co-immunoprecipitation of the zymogen form of caspase-9 (in words),pro-caspase-9 [3],co-immunoprecipitated
